{
  "source": "patent US20170232043A1",
  "about": "“BACTERIA ENGINEERED TO TREAT DISORDERS INVOLVING THE CATABOLISM OF A BRANCHED CHAIN AMINO ACID” (priority 2015, published 2017)",
  "conditions": "0.1 mg/g subcutaneously",
  "key": {"[1]": {"conditions": "as early as 30 min after injection"}},
  "data": [
    {"substance": "heavy isotope-labeled leucine (^13C6) [^13C6-Leu]", "values": [
      {"measurement": "^13C6-Leu in plasma", "setting": "[1]", "value": "present"},
      {"measurement": "^13C6-Leu in small intestine effluent", "setting": "[1]", "value": "present"},
      {"measurement": "^13C6-Leu in cecum", "setting": "up to 2 h", "value": "undetectable"},
      {"measurement": "^13C6-Leu in large intestine", "setting": "up to 2 h", "value": "undetectable"}
    ]}
  ]
}
